Source: US8686130B2, “Artificial fluorescent bases” (Riken, priority 2009, dated 2014)

Experiment: Fluorescence of ribonucleoside 5′-triphosphates and shRNAs excited at 365 nm (dot blot on nylon membrane, LAS 4000)
Conditions: excited with light of 365 nm

Structure (SMILES): Nc1nc(-c2ccc(-c3cccs3)s2)c2ncn([C@@H]3O[C@H](COP(=O)(O)OP(=O)(O)OP(=O)(O)O)[C@@H](O)[C@H]3O)c2n1 [ssTP]
- Fluorescence intensity at the maximum wavelength (rank order): DssTP>ssTP>sTP
- Maximum wavelength of fluorescence: 468 nm
